This assay addresses T1, cloned human P2Y1 receptors (Homo sapiens, UniProt P47900).
T1 construct: expressed in transfected cells
The assay can be described thus: P2Y1 membrane binding assay (inhibition of [^33P] 2MeS-ADP binding). As to conditions: value used in the Cheng-Prusoff relationship; read-out: Kd for 2MeS-ADP to the P2Y1 receptor. The text has this: A membrane binding assay was used to identify inhibitors of [^33P] […] The cDNA clone for human P2Y1 was obtained from Incyte Pharmaceuticals and its sequence confirmed by established techniques (for a compendium of techniques used see Ausubel, F. et al. Current Protocols in Molecular Biology 1995 John Wiley and Sons, NY, N.Y.). The essential coding sequences were subcloned into pCDNA 3.1 (Invitrogen) to produce a P2Y1 expression construct. This construct was then transfected into the human embryonic kidney cell line HEK-293 and stable transfectants selected in Genetcin® (G418 sulfate; Life Technologies). […] Membranes were prepared by growing HEK293 #49 in 150 mm dishes in DMEM/10% FBS in the presence of 1 mg/ml G418 until cells were 80-90% confluent. Plates were then washed with cold (4° C.) D-PBS twice and cells harvested by scraping into 10 mL D-PBS. Cells were pelleted by centrifugation (1,000 g, 10 min, 4° C.) and the resulting pellet resuspended in Lysis Buffer (10 mM Tris (7.4), 5 mM MgCl2 containing Complete® protease inhibitor cocktail (Roche Cat #1873580) as recommended by the manufacturer). […]
Reactions were allowed to proceed to completion at room temperature for 1 hour and then the aqueous solution aspirated. Plates were sealed and the residual [^33P] bound to the plate determined by scintillation counting.

Chains of the proteins cited; added tags and fusions are not shown. Lines headed by an entry give the natural chain unless they say otherwise; changes in a name come on top.
UniProt P47900: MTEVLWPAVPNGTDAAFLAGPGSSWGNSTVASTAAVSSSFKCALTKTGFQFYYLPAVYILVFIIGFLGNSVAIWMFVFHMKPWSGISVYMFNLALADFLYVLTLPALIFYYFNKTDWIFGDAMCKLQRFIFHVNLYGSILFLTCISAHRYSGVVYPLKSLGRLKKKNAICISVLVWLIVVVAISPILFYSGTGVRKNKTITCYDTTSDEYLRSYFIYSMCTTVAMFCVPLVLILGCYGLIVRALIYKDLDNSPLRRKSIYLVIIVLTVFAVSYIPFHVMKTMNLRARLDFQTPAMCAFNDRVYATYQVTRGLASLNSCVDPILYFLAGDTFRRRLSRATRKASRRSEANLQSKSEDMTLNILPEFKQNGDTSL

Data on one compound can be found in US7550499B2, “Urea antagonists of P2Y1 receptor useful in the treatment of thrombotic conditions” (Bristol-Myers Squibb Company, priority 2004, dated 2009).

Molecules are shown by their SMILES.

With `CSc1nc(N)c2ncn([C@@H]3O[C@H](COP(=O)(O)OP(=O)(O)O)[C@@H](O)[C@H]3O)c2n1` [Example 2MeS-ADP, 2 methylthio adenosine diphosphate], the Kd (commonly the free concentration of one partner at which half of the binding sites on the other are occupied at equilibrium, for simple one-to-one binding) stood at 1.4 nM.
